The subject of this assay is paternal UBE3A-YFP. Put plainly: paternal UBE3A-YFP unsilencing, high-content imaging in mouse primary neurons (Ube3a m+/pYFP). The assay is classed as cell-based. Particulars: Primary neuron, 72 h, read-out: EC50 for unsilencing paternal Ube3a-YFP.

This passage reports EC50 results from article PMC11231141, “Ube3a unsilencer for the potential treatment of Angelman syndrome” (Nature Communications, 2024).

For `C[C@H](C(=O)Nc1cc(C2CC2)[nH]n1)c1ccc(N2CCCC2=O)cc1` [(S)-PHA533533], the EC50 is 540 nM.

The EC50 is the midpoint of the concentration-response curve.
